According to PubChem BioAssay AID540295 (The Scripps Research Institute Molecular Screening Center, 2011):
This is a selection; strong and weak results do not stand in their true shares. Activity calls are given as the source filed them.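 How the source made its calls: active means inhibition above its plate's cutoff, the mean of tested wells on that plate plus 3 SD (cut at about 29% in these data); inactive means the rest.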

Amino acid sequences for entries named in this document (tags omitted).
UniProt P32245, whole entry, looked up: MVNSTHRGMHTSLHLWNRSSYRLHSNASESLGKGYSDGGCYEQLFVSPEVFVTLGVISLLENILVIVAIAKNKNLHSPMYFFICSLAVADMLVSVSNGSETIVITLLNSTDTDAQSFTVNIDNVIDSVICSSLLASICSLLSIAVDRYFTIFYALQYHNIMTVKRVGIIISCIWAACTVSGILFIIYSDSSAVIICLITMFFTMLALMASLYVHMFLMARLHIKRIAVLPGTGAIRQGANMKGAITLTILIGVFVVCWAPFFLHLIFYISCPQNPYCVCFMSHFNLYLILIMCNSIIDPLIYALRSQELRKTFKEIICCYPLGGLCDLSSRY

Each molecule was assayed against Melanocortin receptor 4 (Homo sapiens) (UniProt P32245) (assay: blockers of MC4R Gs-cAMP response – cell-based, TR-FRET, antagonist arm of biased-ligand search, primary screen (AID 540295;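 further: 0% = Melanotan II alone and 100% = Melanotan II plus saturating MCL0020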)). Details: MC4R-expressing cells, MTII-stimulated cAMP, LANCE TR-FRET; at 6.5 µM; active compounds read high.

SMILES	inhibition
COC(=O)C1(C)COP(=O)(Nc2ccccc2)OC1 (configuration not stated)	inactive: -3.55%
O=[N+]([O-])c1cccc(NC2=NCC(CBr)S2)c1 (configuration not stated)	inactive: 2.59%
O=C(O)CNc1ccc([As](=O)(O)O)cc1	inactive: 5.51%
CC(C)(C)C(=O)NC(Sc1ccncn1)C(Cl)(Cl)Cl (configuration not stated)	inactive: 4.04%
O=[N+]([O-])c1ncn(CCn2ncnc2[N+](=O)[O-])n1	inactive: 4.07%
O=C(Nc1cc([As](=O)(O)O)ccc1O)c1ccccc1	inactive: 8.88%
O=P1(N(CCCl)CCCl)OCCCS1 (configuration not stated)	inactive: 1.11%
CN(C)C(=O)OCCc1n(C)cc[n+]1C	inactive: 14.1%
CC(C)c1nc(Nc2ccccc2)n(P(=O)(N(C)C)N(C)C)n1	inactive: 0.66%
CC(C)=N/N=C(\N)N[N+](=O)[O-]	inactive: 3.01%
CC1CCN(C(=O)Oc2c(Cl)cc(Cl)c3cccnc23)CC1	inactive: -10.3%
c1cc(-c2nn[nH]n2)ccc1-c1nn[nH]n1	inactive: -2.66%
C[N+]1=C2C=CC=CC=C2SC12C([N+](=O)[O-])=CC([N+](=O)[O-])=C[C-]2[N+](=O)[O-] (configuration not stated)	inactive: 2.77%
Nc1ccc([As](=O)(O)c2ccc(N)cc2)cc1	inactive: 1.65%
CCN(/C(=N/P(=O)(N1CCOCC1)N1CCOCC1)N1CCOCC1)c1ccc(OC)cc1	inactive: 0.49%
CC(=O)N1C2C3N(C(C)=O)C1C1N(C(C)=O)C(C(N1C(C)=O)N3C(C)=O)N2C(C)=O	inactive: -0.38%
O=[N+]([O-])c1cccc2n[nH]nc12	inactive: 5.33%
O=[N+]([O-])c1cc([N+](=O)[O-])c(CCNc2ccccc2)c([N+](=O)[O-])c1	inactive: 5.98%
CCc1nc2c(n1)c1c(non1O)c1c2no[n+]1[O-]	inactive: -44.4%
Cc1ccc(NP(=O)(Oc2ccccc2)Oc2ccccc2)nc1	inactive: -0.2%
COc1ccc(C2=NCC(CBr)S2)cc1 (configuration not stated)	inactive: 0.49%
Nc1cc(N)c2nonc2c1[N+](=O)[O-]	inactive: 4.24%
CC(C)CC(=O)NC(Sc1ccc(Cl)cc1)C(Cl)(Cl)Cl (configuration not stated)	inactive: 5.65%
O=C(NC(Sc1ccncn1)C(Cl)(Cl)Cl)c1ccccc1 (configuration not stated)	inactive: 6.38%
Oc1ccccc1CNc1ccccn1	inactive: 3.57%
Cc1ccc(OP(=O)(Nc2nccs2)Oc2ccc(C)cc2)cc1	inactive: 4.2%

SMILES	inhibition
COc1ccccc1OP(=O)(Nc1ccc(C)cn1)Oc1ccccc1OC	inactive: 3.85%
CN1CCCC(OC(=O)C(c2ccccc2)c2ccccc2)C1 (configuration not stated)	inactive: -6.05%
Clc1ccc(Cl)c(NC2=NCC(CBr)S2)c1 (configuration not stated)	inactive: 19.7%
NC(=O)c1cc([N+](=O)[O-])cc([N+](=O)[O-])c1N	inactive: 16.6%
Cc1ccc(N/C(=N/P(=O)(N2CCOCC2)N2CCOCC2)N2CCOCC2)cc1	inactive: 5.58%
CN(C(=O)Cc1ccc(Cl)c(Cl)c1)[C@H]1CCCC[C@H]1N1CCCC1	inactive: 5.39%
CCN(N=Nc1nonc1N)c1nonc1N	inactive: -1.18%
Nc1cccc2ccc([As](=O)(O)O)cc12	inactive: 2.25%
CN(C(=O)Cc1ccc(Cl)c(Cl)c1)[C@H]1CCCC[C@@H]1N1CCCC1	inactive: 9.98%
Cc1ccc(NP(=O)(Oc2ccccc2F)Oc2ccccc2F)nc1	inactive: 16%
Cc1cc(SC(NC(=O)c2ccc(F)cc2)C(Cl)(Cl)Cl)ncn1 (configuration not stated)	inactive: 6.17%
CCOP(=O)(Nc1ccccc1)OCC	inactive: 7.85%
CCCC1OP(N)(=O)OCC1CC (configuration not stated)	inactive: 13.1%
CC(=O)Nc1ccc([As](=O)(O)O)cc1	inactive: 20.5%
O=C(O)c1ccccc1[As](=O)(O)O	inactive: 0.43%
O=P(Nc1nc2ccc(Cl)cc2s1)(c1ccccc1)c1ccccc1	inactive: -6.24%
CN(C)P(=O)(N(C)C)n1c(Nc2ccccc2)nnc1-c1ccccc1	inactive: 7.36%
O=c1c2cc([N+](=O)[O-])ccc2[nH]c2c([N+](=O)[O-])cc([N+](=O)[O-])cc12	inactive: 19%
CN(C)C(=O)Oc1noc2ccccc12	inactive: 0.71%
CC(NC(=O)COC(=O)C(O)(c1ccccc1)c1ccccc1)c1ccccc1 (configuration not stated)	inactive: 13.1%
Cc1ccccc1OP(=O)(Nc1ccccn1)Oc1ccccc1C	inactive: 4.63%
Cc1ccc(OP(=O)(Nc2ccccn2)Oc2ccc(C)cc2)cc1	inactive: 7.82%
CC(=O)NC(SC(=S)N(CC(C)C)CC(C)C)C(Cl)(Cl)Cl (configuration not stated)	inactive: 8.46%
COC(=O)c1cc2c(s1)N=C(c1ccccc1)N(C)P2(=O)N1CCOCC1 (configuration not stated)	inactive: 12.1%
CCC(=O)N1C2C3N(C(=O)CC)C1C1N(C(=O)CC)C(C(N1C(=O)CC)N3C(=O)CC)N2C(=O)CC	inactive: 11.8%
O=C(OC1CN2CCC1CC2)c1ccccc1 (configuration not stated)	inactive: 0.43%

SMILES	inhibition
O=P1(N(CCCl)CCCl)OCCC2CCCCN21 (configuration not stated)	inactive: 1.75%
O=C(NC1CCS(=O)(=O)C1)NP(=S)(Oc1ccccc1)Oc1ccccc1 (configuration not stated)	inactive: -4.16%
CCNC(=S)/N=C(\N)N[N+](=O)[O-]	inactive: 10.8%
Cc1ccc(NP(=O)(Oc2cccc(C)c2)Oc2cccc(C)c2)nc1	inactive: 1.65%
c1ccc(-c2nn[nH]n2)c(-c2nn[nH]n2)c1	inactive: -4.35%
CC(=O)Nc1ccc(Oc2c([N+](=O)[O-])cc([N+](=O)[O-])cc2[N+](=O)[O-])cc1	inactive: 11.7%
CC(=O)Nc1ccc([As](=O)(O)O)c(O)c1	inactive: 0.76%
COC(=O)C1(C)COP(=O)(NCc2ccccc2)OC1 (configuration not stated)	inactive: 2.04%
CC(=O)c1ccc(N2CC2c2ccncc2)cc1 (configuration not stated)	inactive: 12.6%
N#C/C(=C\c1ccc(N(CCBr)CCBr)cc1)C(N)=O	inactive: -3.65%
C[C@H]1OP(=O)(Oc2ccccc2)C[C@@H]2O[C@@H]21 (some centres not stated)	inactive: 17.3%
C[C@@H]1C=CCP(=O)(Oc2ccccc2)O1 (some centres not stated)	inactive: -3.03%
Cc1ccccc1CN(C)C(=O)COC(=O)C(O)(c1ccccc1)c1ccccc1	inactive: -2.89%
CCc1cc(O)c([N+](=O)[O-])c(C)c1[N+](=O)[O-]	inactive: 3.57%
CC(C)(C)C(=O)NC(Sc1ccccc1)C(Cl)(Cl)Cl (configuration not stated)	inactive: 2.95%
CCOc1ccc(C2=NCC(CBr)S2)cc1 (configuration not stated)	inactive: 2.38%
O=P1(Nc2nc3ccc(Cl)cc3s2)COc2ccccc2O1 (configuration not stated)	inactive: -0.05%
COc1ccc(C[C@H](C)NC[C@@H](O)c2ccc(O)c(NC=O)c2)cc1	inactive: -3.74%
c1nnnn1CCn1cnnn1	inactive: -0.03%
O=P(Nc1nccs1)(c1ccccc1)c1ccccc1	inactive: 0.77%
CC(C)C(=O)NC(Sc1ccccc1)C(Cl)(Cl)Cl (configuration not stated)	inactive: 2.64%
C(Cc1nn[nH]n1)Cc1nn[nH]n1	inactive: 1.25%
Nc1ccc([As](=O)(O)c2ccc([N+](=O)[O-])cc2)cc1	inactive: 15.9%
O=C(OC1CN2CCC1CC2)c1cccc(Cl)c1 (configuration not stated)	inactive: 8.5%
O=[N+]([O-])c1ncn(CCn2cnc([N+](=O)[O-])n2)n1	inactive: 2.94%
CC(=O)NC(SC(=S)N(C)C)C(Cl)(Cl)Cl (configuration not stated)	inactive: 8.67%

SMILES	inhibition
O=[N+]([O-])c1ccc(O)c(/C=N/Nc2ccc([N+](=O)[O-])cc2[N+](=O)[O-])c1	inactive: 11.6%
O=[As](O)(c1ccccc1)c1ccc(O)cc1	inactive: 12.2%
C[C@H]1OP(=O)(Oc2ccccc2)[C@H](O)[C@H](O)[C@H]1N=[N+]=[N-] (some centres not stated)	inactive: 1.53%
O=P(Nc1nc2ccccc2s1)(c1ccccc1)c1ccccc1	inactive: 9.91%
COc1ccc(N)c([N+](=O)[O-])c1[N+](=O)[O-]	inactive: -0.75%
CN(C)C1(CNC(=O)c2ccc(Cl)c(S(N)(=O)=O)c2)CCCCC1	inactive: 0.36%
O=P(Nc1ccccn1)(c1ccc(Br)cc1)c1ccc(Br)cc1	inactive: 24.3%
O=[As](O)(c1cccs1)c1cccs1	inactive: 1.61%
Cc1ccc(OCC(=O)OC2CN3CCC2CC3)cc1 (configuration not stated)	inactive: 8.09%
NS(=O)(=O)c1cccc(NC(=O)COC(=O)C(O)(c2ccccc2)c2ccccc2)c1	inactive: 6.69%
O=P1(Nc2ccc(Br)cn2)COc2ccccc2OC1	inactive: 0.14%
Nc1cccc([As](=O)(O)c2ccccc2)c1	inactive: -0.62%
O=P1(Nc2ncccn2)COc2ccccc2OC1	inactive: 9.27%
CCCC1OP(=O)(Nc2ccccc2)OCC1CC (configuration not stated)	inactive: 3.57%
O=C(/C=C/c1ccccc1)OC1CN2CCC1CC2 (configuration not stated)	inactive: -2.77%
CN(C)C1(CNC(=O)c2ccc(S(C)(=O)=O)cc2)CCCCC1	inactive: 11.8%
CC1CCC(C(C)C)C(OP(=O)(Nc2ccccn2)c2ccccc2)C1 (configuration not stated)	inactive: 3.57%
Cc1nn(-c2ccccc2)c2c1P(=O)(N1CCOCC1)N(C)C(c1ccccc1)=N2 (configuration not stated)	inactive: 2.69%
CC1(CBr)Cn2c(nc3ccccc3c2=O)S1 (configuration not stated)	inactive: 6.79%
CN(C(=O)Cc1ccc(Cl)c(Cl)c1)[C@@H]1CCCC[C@H]1N1CCCC1	inactive: 12.2%
CC(C)/C=N\N=C(\N)N[N+](=O)[O-]	inactive: -7.6%
COc1ccccc1CNC(=O)COC(=O)C(O)(c1ccccc1)c1ccccc1	inactive: 7.15%
CC(C)(C)C(=O)NC(Sc1ncccn1)C(Cl)(Cl)Cl (configuration not stated)	inactive: 11.6%
Clc1n[nH]nc1-c1nn[nH][15n]1	inactive: 1.83%
